Earlier results in publication PMC8633019.

Key:
[1] = molecular target: profilin (Homo sapiens) (UniProt P07737); test: actin polymerization rate
[2] = molecular target: MRTF-A (Homo sapiens) (UniProt Q969V6); test: actin polymerization rate

## smooth muscle alpha-actin (from UniProt P62736)
[1]
  Kd: 3000 nM
[2]
  Kd: 1800 nM
